In US20260070899A1, “N-(2-(4-CYANOTHIAZOLIDIN-3-YL)-2-OXOETHYL)-QUINOLINE-4-CARBOXAMIDES” (AstraZeneca AB, priority 2022, published 2026):

Molecular target: T1, human Fibroblast activation protein alpha (hFAP) (Homo sapiens, UniProt Q12884)
T1 construct: Proteros, 38-760 (PR-0071); purchased Proteros PR-0071
T1 sequence (Q12884 38-760): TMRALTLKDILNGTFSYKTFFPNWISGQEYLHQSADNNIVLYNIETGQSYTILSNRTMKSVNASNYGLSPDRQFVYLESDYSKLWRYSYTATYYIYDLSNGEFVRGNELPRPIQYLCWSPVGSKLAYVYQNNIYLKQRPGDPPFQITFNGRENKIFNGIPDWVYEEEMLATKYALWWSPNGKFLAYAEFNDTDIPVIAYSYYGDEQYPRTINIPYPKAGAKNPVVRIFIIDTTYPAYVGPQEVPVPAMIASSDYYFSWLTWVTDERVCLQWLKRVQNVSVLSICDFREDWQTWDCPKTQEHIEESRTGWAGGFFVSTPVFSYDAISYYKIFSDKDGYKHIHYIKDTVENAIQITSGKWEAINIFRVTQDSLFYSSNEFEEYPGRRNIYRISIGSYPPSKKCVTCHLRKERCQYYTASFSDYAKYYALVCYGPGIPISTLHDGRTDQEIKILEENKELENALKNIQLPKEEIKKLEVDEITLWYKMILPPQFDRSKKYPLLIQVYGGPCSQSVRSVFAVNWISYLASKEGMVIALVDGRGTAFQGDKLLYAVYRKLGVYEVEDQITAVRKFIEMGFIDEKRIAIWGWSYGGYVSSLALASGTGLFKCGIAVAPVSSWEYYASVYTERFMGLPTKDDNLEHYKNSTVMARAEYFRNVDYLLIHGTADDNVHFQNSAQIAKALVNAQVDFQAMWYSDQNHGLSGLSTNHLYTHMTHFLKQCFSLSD
Assay: hFAP inhibition assay (tight binders)
Assay type: biochemical
Details: Ala-Pro-AMC 20 μM, n = 1 or geometric mean (n = 2-5)
Method: Data were analyzed in Genedata Screener®.

IC50 | SMILES
0.042 nM | N#C[C@@H]1CSCN1C(=O)CNC(=O)c1ccnc2ccc(OCC3CC3)cc12 [Example 5, (R)—N-(2-(4-Cyanothiazolidin-3-yl)-2-oxoethyl)-6-(cyclopropyl-methoxy)quinoline-4-carboxamide]
0.042 nM | N#C[C@@H]1CSCN1C(=O)CNC(=O)c1ccnc2ccc(C3=CCOCC3)cc12 [Example 22, (R)—N-(2-(4-Cyanothiazolidin-3-yl)-2-oxoethyl)-6-(3,6-dihydro-2H-pyran-4-yl)quinoline-4-carboxamide]
0.43 nM | N#C[C@@H]1CSCN1C(=O)CNC(=O)c1ccnc2ccc(C(F)(F)F)cc12 [Example 17, (R)—N-(2-(4-Cyanothiazolidin-3-yl)-2-oxoethyl)-6-(trifluoromethyl)-quinoline-4-carboxamide]
< 0.16 nM | CCOCc1ccc2nccc(C(=O)NCC(=O)N3CSC[C@H]3C#N)c2c1 [Example 27, (R)—N-(2-(4-cyanothiazolidin-3-yl)-2-oxoethyl)-6-(ethoxymethyl)-quinoline-4-carboxamide]
0.12 nM | COCCc1ccc2nccc(C(=O)NCC(=O)N3CSC[C@H]3C#N)c2c1 [Example 82, (R)—N-(2-(4-cyanothiazolidin-3-yl)-2-oxoethyl)-6-(2-methoxyethyl)quinoline-4-carboxamide]
0.13 nM | Cc1ccc(C2(c3ccc4nccc(C(=O)NCC(=O)N5CSC[C@H]5C#N)c4c3)CC2)cn1 [Example 43, (R)—N-(2-(4-Cyanothiazolidin-3-yl)-2-oxoethyl)-6-(1-(6-methylpyridin-3-yl)cyclopropyl)quinoline-4-carboxamide]
0.16 nM | CCOC1(c2ccc3nccc(C(=O)NCC(=O)N4CSC[C@H]4C#N)c3c2)CCOCC1 [Example 23, (R)—N-(2-(4-Cyanothiazolidin-3-yl)-2-oxoethyl)-6-(4-ethoxytetrahydro-2H-pyran-4-yl)quinoline-4-carboxamide]
0.19 nM | N#C[C@@H]1CSCN1C(=O)CNC(=O)c1ccnc2ccc(CN3CCOCC3)cc12 [Example 24, (R)—N-(2-(4-Cyanothiazolidin-3-yl)-2-oxoethyl)-6-(morpholino-methyl)quinoline-4-carboxamide]
0.14 nM | N#C[C@@H]1CSCN1C(=O)CNC(=O)c1ccnc2ccc(C3CCCO3)cc12 (mixture of isomers) [Example 34, N-(2-((R)-4-Cyanothiazolidin-3-yl)-2-oxoethyl)-6-((RS)-tetrahydrofuran-2-yl)quinoline-4-carboxamide]
0.26 nM | N#C[C@@H]1CSCN1C(=O)CNC(=O)c1ccnc2ccc(COC3CCOC3)cc12 (mixture of isomers) [Example 35, N-(2-((R)-4-Cyanothiazolidin-3-yl)-2-oxoethyl)-6-((((RS)-tetrahydrofuran-3-yl)oxy)methyl)quinoline-4-carboxamide]
0.1 nM | CC1(C)CC(c2ccc3nccc(C(=O)NCC(=O)N4CSC[C@H]4C#N)c3c2)CCO1 (mixture of isomers) [Example 68, N-(2-((R)-4-Cyanothiazolidin-3-yl)-2-oxoethyl)-6-((RS)-2,2-dimethyltetrahydro-2H-pyran-4-yl)quinoline-4-carboxamide]
0.12 nM | N#C[C@@H]1CSCN1C(=O)CNC(=O)c1ccnc2ccc(OCC3CC(F)(F)C3)cc12 [Example 8, (R)—N-(2-(4-Cyanothiazolidin-3-yl)-2-oxoethyl)-6-((3,3-difluorocyclobutyl)methoxy)quinoline-4-carboxamide]
0.086 nM | N#C[C@@H]1CSCN1C(=O)CNC(=O)c1ccnc2ccc(CCC(F)(F)F)cc12 [Example 58, (R)—N-(2-(4-Cyanothiazolidin-3-yl)-2-oxoethyl)-6-(3,3,3-trifluoropropyl)quinoline-4-carboxamide]
0.2 nM | N#C[C@@H]1CSCN1C(=O)CNC(=O)c1ccnc2ccc(C3COCCO3)cc12 (mixture of isomers) [Example 33, N-(2-((R)-4-Cyanothiazolidin-3-yl)-2-oxoethyl)-6-((RS)-1,4-dioxan-2-yl)quinoline-4-carboxamide]
